Yeast mating assay 2: variants of the scFv Ab-95

The target is the same throughout: PDVDLGDISGINAS, from the HR2 region of SARS-CoV-2 spike.

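The library (AAYL52) carries one to three amino acid substitutions per variant, with no insertions or deletions. In AlphaSeq, yeast of one mating type display the scFv and yeast of the other type display the target. The frequency of each diploid, read from paired DNA barcodes, reflects how well the two displayed proteins bind. Scores were corrected for input abundance and mapped to Kd with protein pairs of known affinity run in the same pool. The assay was run in three technical replicates.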

Parent scFv Ab-95: VH joined to VL by three GGGGS repeats. Changes lie in the light chain CDRs alone.
VH: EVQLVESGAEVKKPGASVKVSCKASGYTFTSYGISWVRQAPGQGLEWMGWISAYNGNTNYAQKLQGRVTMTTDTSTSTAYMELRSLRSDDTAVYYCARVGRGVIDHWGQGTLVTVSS
VL: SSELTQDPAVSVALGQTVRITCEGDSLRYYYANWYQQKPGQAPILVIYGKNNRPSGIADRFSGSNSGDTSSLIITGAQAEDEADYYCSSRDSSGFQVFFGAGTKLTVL

Substitutions are numbered in sequence along the VL above, starting at 1 (not Kabat). Numbers give log10(Kd / nM), so 0 is 1 nM and 3 is 1 µM. Smaller is tighter. The mean shown is taken over the replicates in which the pair was detected. An entry "not detected" has no value in the source: the pair was not observed among the diploids in any replicate. This suggests poor binding but is not conclusive.

changes	log10 Kd (nM), mean	detected
E23C L27C Y30W	4.50	2/3
N51S R53Y G94Y	not detected	0/3
D25F D91W Q96M	3.33	2/3
G24W Y30I N52M	3.74	3/3
R28N Y29F	2.52	3/3
Y30K F95I F98R	1.75	3/3
E23C G24H D25K	2.98	2/3
S26P R28C R90L	not detected	0/3
S26F F95K	2.95	3/3
N51F S89M F98M	4.33	2/3
G49C P54G S89H	3.89	1/3
N33Q S88W R90S	4.45	2/3
R28F N51E S88Q	4.06	1/3
L27N Y31G S93V	2.87	2/3
E23A P54E D91K	3.11	3/3
G24L R28Y R90L	3.19	2/3
S26G R53Q P54K	3.30	1/3
E23I Y31R A32I	3.04	3/3
S26A N33C D91Y	4.97	3/3
L27I R28V S92C	not detected	0/3
S26M R53I	3.72	1/3
A32Y N52S G94T	4.09	1/3
N51W N52G S55Q	3.54	1/3
S55A S88E	1.64	3/3
N52Y G94W	2.64	3/3
E23L R28Y S55V	4.06	3/3
S92I F95I Q96V	not detected	0/3
R28F G49T S89E	not detected	0/3
E23H A32T Q96S	2.29	3/3

Continued, with the values leading:

log10 Kd (nM), mean	detected	changes
4.03	3/3	K50I R53L S55H
3.83	2/3	L27Y N33D G49D
4.07	2/3	G49E S89F G94P
1.96	3/3	Y31N F95E
4.16	2/3	E23P P54G S93D
not detected	0/3	R28W R90D S92V
4.42	2/3	D25R R53P S89H
4.00	3/3	R53F P54G G94Y
4.22	1/3	L27A R28Q S93D
4.08	3/3	E23L G49Q P54A
2.73	3/3	D25S S88H S93H
3.57	1/3	S26Y Y31C S93W
3.16	3/3	E23D D25L V97T
3.84	2/3	S55K S89Q
3.12	2/3	D25V P54D S92V
2.46	3/3	S89L R90M S92P
0.80	3/3	R28A Y30Q
3.39	3/3	N51K G94A
3.06	1/3	A32H P54K S55V
3.41	1/3	Y31N D91Y F95L
not detected	0/3	G24N L27P F98L
not detected	0/3	E23S A32Y G49R
3.23	2/3	S26W N52Y S55V
not detected	0/3	G49W K50F N51H
4.35	2/3	Y31P S88I S89D
2.18	3/3	S55I S93I Q96L
not detected	0/3	Y31G R90V F95H
2.06	3/3	D25N Y29S N51E
not detected	0/3	G24K N51M S55F

A selection of 5 entries from above:

| changes | log10 Kd (nM), mean | detected |
|---|---|---|
| D25V P54D S92V | 3.12 | 2/3 |
| G49W K50F N51H | not detected | 0/3 |
| N51W N52G S55Q | 3.54 | 1/3 |
| E23D D25L V97T | 3.16 | 3/3 |
| R28N Y29F | 2.52 | 3/3 |

Parent in this assay: reference entry 2.31, copy in this library 2.25. Nonspecific signal, from three strains lacking the peptide, appeared in 28% of pairings of library AAYL52, centred on 3.91 (5% of these signals below 2.90); values are not corrected for it.

Values reported by Engelhart et al. 2022, doi:10.1038/s41597-022-01779-4 (FLAb copy).